# Data from PubChem BioAssay AID588489 (Sanford-Burnham Center for Chemical Genomics, 2011).
# The chains behind the UniProt entries cited, without tags or fusion partners.
# UniProt P11940, whole entry, looked up: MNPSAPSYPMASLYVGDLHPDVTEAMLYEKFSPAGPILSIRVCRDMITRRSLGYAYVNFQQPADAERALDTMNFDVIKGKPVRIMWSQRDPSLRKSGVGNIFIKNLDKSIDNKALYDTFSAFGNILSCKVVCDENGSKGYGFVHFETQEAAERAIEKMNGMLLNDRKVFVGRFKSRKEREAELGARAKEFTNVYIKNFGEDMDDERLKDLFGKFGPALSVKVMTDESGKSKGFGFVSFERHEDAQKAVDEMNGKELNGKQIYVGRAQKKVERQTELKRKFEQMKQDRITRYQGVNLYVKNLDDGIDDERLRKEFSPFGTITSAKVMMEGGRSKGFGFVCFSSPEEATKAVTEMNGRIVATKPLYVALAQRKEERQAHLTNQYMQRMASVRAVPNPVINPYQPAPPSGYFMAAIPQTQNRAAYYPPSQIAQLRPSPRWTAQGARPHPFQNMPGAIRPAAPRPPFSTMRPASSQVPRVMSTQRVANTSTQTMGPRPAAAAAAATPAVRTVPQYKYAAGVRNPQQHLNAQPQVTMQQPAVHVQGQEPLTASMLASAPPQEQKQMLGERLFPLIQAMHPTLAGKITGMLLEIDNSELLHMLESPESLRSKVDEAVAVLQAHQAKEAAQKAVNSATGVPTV
# The entries are a selection whose mix differs from that of the whole data set. Activity calls are given as the source filed them. Rule as the data show it: active = inhibition above about 35% (passing the limit was not always enough); inactive = the rest.
# Target: Polyadenylate-binding protein 1 (Homo sapiens) (UniProt P11940)
# Test: inhibitors of PABP1 MLLE–PAM2 peptide binding, primary screen, biochemical, fluorescence polarization, FITC-PAM2, GST-MLLE (AID 588489);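 also: plate controls were DMSO wells with GST-MLLE for no effect and wells lacking GST-MLLE protein for full effect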
# Details: at 20 µM, hits give high values
row,Compound,inhibition
1,COc1ccc(C2=NCC(CBr)S2)cc1 (stereo not given),inactive: 31.1%
2,Cc1ccc(NP(=O)(Oc2ccccc2)Oc2ccccc2)nc1,inactive: 22%
3,CCc1nc2c(n1)c1c(non1O)c1c2no[n+]1[O-],inactive: -7.97%
4,O=[N+]([O-])c1cc([N+](=O)[O-])c(CCNc2ccccc2)c([N+](=O)[O-])c1,inactive: -7.48%
5,O=[N+]([O-])c1cccc2n[nH]nc12,inactive: 4.89%
6,CC(=O)N1C2C3N(C(C)=O)C1C1N(C(C)=O)C(C(N1C(C)=O)N3C(C)=O)N2C(C)=O,inactive: -3.78%
7,CCN(/C(=N/P(=O)(N1CCOCC1)N1CCOCC1)N1CCOCC1)c1ccc(OC)cc1,inactive: -6%
8,Nc1ccc([As](=O)(O)c2ccc(N)cc2)cc1,inactive: 14.9%
9,C[N+]1=C2C=CC=CC=C2SC12C([N+](=O)[O-])=CC([N+](=O)[O-])=C[C-]2[N+](=O)[O-] (stereo not given),inactive: 32.9%
10,c1cc(-c2nn[nH]n2)ccc1-c1nn[nH]n1,inactive: 0.49%
11,CC1CCN(C(=O)Oc2c(Cl)cc(Cl)c3cccnc23)CC1,inactive: 0.56%
12,CC(C)=N/N=C(\N)N[N+](=O)[O-],inactive: -3.36%
13,CC(C)c1nc(Nc2ccccc2)n(P(=O)(N(C)C)N(C)C)n1,inactive: -1.11%
14,CN(C)C(=O)OCCc1n(C)cc[n+]1C,inactive: 7.36%
15,O=P1(N(CCCl)CCCl)OCCCS1 (stereo not given),inactive: 6.09%
16,O=C(Nc1cc([As](=O)(O)O)ccc1O)c1ccccc1,inactive: 9.31%
17,O=[N+]([O-])c1ncn(CCn2ncnc2[N+](=O)[O-])n1,inactive: 3.24%
18,CC(C)(C)C(=O)NC(Sc1ccncn1)C(Cl)(Cl)Cl (stereo not given),inactive: 30.9%
19,O=C(O)CNc1ccc([As](=O)(O)O)cc1,inactive: -5.93%
20,O=[N+]([O-])c1cccc(NC2=NCC(CBr)S2)c1 (stereo not given),inactive: 16.9%
21,COC(=O)C1(C)COP(=O)(Nc2ccccc2)OC1 (stereo not given),inactive: 5.63%
22,CN(C)P(=O)(N(C)C)n1c(Nc2ccccc2)nnc1-c1ccccc1,inactive: -15.5%

row,Compound,inhibition
1,O=P(Nc1nc2ccc(Cl)cc2s1)(c1ccccc1)c1ccccc1,inactive: 6.15%
2,O=C(O)c1ccccc1[As](=O)(O)O,inactive: 5.72%
3,CC(=O)Nc1ccc([As](=O)(O)O)cc1,inactive: 1.45%
4,CCCC1OP(N)(=O)OCC1CC (stereo not given),inactive: 0.42%
5,CCOP(=O)(Nc1ccccc1)OCC,inactive: -4.25%
6,Cc1cc(SC(NC(=O)c2ccc(F)cc2)C(Cl)(Cl)Cl)ncn1 (stereo not given),inactive: 19.4%
7,Cc1ccc(NP(=O)(Oc2ccccc2F)Oc2ccccc2F)nc1,inactive: 16.8%
8,CN(C(=O)Cc1ccc(Cl)c(Cl)c1)[C@H]1CCCC[C@@H]1N1CCCC1,inactive: 5.2%
9,Nc1cccc2ccc([As](=O)(O)O)cc12,inactive: 13.2%
10,CCN(N=Nc1nonc1N)c1nonc1N,inactive: 5.59%
11,CN(C(=O)Cc1ccc(Cl)c(Cl)c1)[C@H]1CCCC[C@H]1N1CCCC1,inactive: -12.7%
12,Cc1ccc(N/C(=N/P(=O)(N2CCOCC2)N2CCOCC2)N2CCOCC2)cc1,inactive: 2.27%
13,NC(=O)c1cc([N+](=O)[O-])cc([N+](=O)[O-])c1N,inactive: -3.67%
14,Clc1ccc(Cl)c(NC2=NCC(CBr)S2)c1 (stereo not given),inactive: 8.99%
15,CN1CCCC(OC(=O)C(c2ccccc2)c2ccccc2)C1 (stereo not given),inactive: -9.77%
16,COc1ccccc1OP(=O)(Nc1ccc(C)cn1)Oc1ccccc1OC,inactive: -4.52%
17,Cc1ccc(OP(=O)(Nc2nccs2)Oc2ccc(C)cc2)cc1,inactive: -5.04%
18,Oc1ccccc1CNc1ccccn1,inactive: -3.38%
19,O=C(NC(Sc1ccncn1)C(Cl)(Cl)Cl)c1ccccc1 (stereo not given),inactive: 37%
20,CC(C)CC(=O)NC(Sc1ccc(Cl)cc1)C(Cl)(Cl)Cl (stereo not given),inactive: -3.65%
21,Nc1cc(N)c2nonc2c1[N+](=O)[O-],inactive: 15.8%
22,O=[N+]([O-])C1C(O)C(O)C([N+](=O)[O-])C(O)C1O (stereo not given),inactive: 8.91%

row,Compound,inhibition
1,O=P1(Nc2nc3ccc(Cl)cc3s2)COc2ccccc2O1 (stereo not given),inactive: -8.28%
2,CCOc1ccc(C2=NCC(CBr)S2)cc1 (stereo not given),inactive: 0.04%
3,CC(C)(C)C(=O)NC(Sc1ccccc1)C(Cl)(Cl)Cl (stereo not given),inactive: 17.5%
4,CCc1cc(O)c([N+](=O)[O-])c(C)c1[N+](=O)[O-],inactive: -0.89%
5,Cc1ccccc1CN(C)C(=O)COC(=O)C(O)(c1ccccc1)c1ccccc1,inactive: 9.1%
6,C[C@@H]1C=CCP(=O)(Oc2ccccc2)O1 (stereo not given in full),inactive: 2.86%
7,C[C@H]1OP(=O)(Oc2ccccc2)C[C@@H]2O[C@@H]21 (stereo not given in full),inactive: -3.94%
8,N#C/C(=C\c1ccc(N(CCBr)CCBr)cc1)C(N)=O,inactive: -25.2%
9,CC(=O)c1ccc(N2CC2c2ccncc2)cc1 (stereo not given),inactive: -3.08%
10,COC(=O)C1(C)COP(=O)(NCc2ccccc2)OC1 (stereo not given),inactive: 11.3%
11,CC(=O)Nc1ccc([As](=O)(O)O)c(O)c1,inactive: 8.31%
12,CC(=O)Nc1ccc(Oc2c([N+](=O)[O-])cc([N+](=O)[O-])cc2[N+](=O)[O-])cc1,inactive: -2.91%
13,c1ccc(-c2nn[nH]n2)c(-c2nn[nH]n2)c1,inactive: -4.53%
14,Cc1ccc(NP(=O)(Oc2cccc(C)c2)Oc2cccc(C)c2)nc1,inactive: 6.72%
15,CCNC(=S)/N=C(\N)N[N+](=O)[O-],inactive: 24.1%
16,O=C(NC1CCS(=O)(=O)C1)NP(=S)(Oc1ccccc1)Oc1ccccc1 (stereo not given),inactive: -2.2%
17,O=P1(N(CCCl)CCCl)OCCC2CCCCN21 (stereo not given),inactive: -4.17%
18,O=C(OC1CN2CCC1CC2)c1ccccc1 (stereo not given),inactive: -1.99%
19,CCC(=O)N1C2C3N(C(=O)CC)C1C1N(C(=O)CC)C(C(N1C(=O)CC)N3C(=O)CC)N2C(=O)CC,inactive: -18.8%
20,COC(=O)c1cc2c(s1)N=C(c1ccccc1)N(C)P2(=O)N1CCOCC1 (stereo not given),inactive: 1.54%
21,CC(=O)NC(SC(=S)N(CC(C)C)CC(C)C)C(Cl)(Cl)Cl (stereo not given),inactive: 9.45%
